Results from patent US4378344A, “Method and apparatus for performing multiple, simultaneous in vitro diagnostic tests using a solid phase system” (priority 1979, dated 1983).

Key:
[1] = test system: anti-T4; assay: % binding of 125I-T4 to anti-T4 coated tubes (Example 3); set-up: species or system rabbit
Experimental: (§1) 12×75 mm commercially available polystyrene tubes were utilized. […] The tubes and sticks were then washed.
(§2) The tubes and sticks were washed and air dried. […] The final coating procedure could utilize any rabbit antibody.
Two series were conducted for this example.

[2] = test system: anti-T4; assay: % binding of 125I-T4 to sticks coated with anti-T4 or with anti-digoxin and anti-T4 (Example 5); set-up: species or system rabbit
Text: as §1, §2
This example describes the immobilizing of two antibodies to sticks using rabbit anti-digoxin and rabbit anti-thyroxin as the antibodies.
Nine fin sticks were coated with IgG and anti-antibody as described in Example 1. Anti-digoxin and anti-thyroxin were mixed prior to coating the anti-antibody coated sticks. These two antibodies were then immunologically bound to the anti-antibody coated sticks using the same buffer and for a period of 24 hours at room temperature. The sticks were then washed and dried after which they could be utilized to determine the amount of digoxin and thyroxin in a fluid sample.
Nine fin sticks were coated with (1) anti-T4 as described in Example 1 and (2) anti-digoxin and anti-T4 as described in Example 2. […] A stick coated with (1) anti-T4 and (2) anti-digoxin and anti-T4 were inserted in the tubes.

N[C@@H](Cc1cc(I)c(Oc2cc(I)c(O)c([125I])c2)c(I)c1)C(=O)O [^125 I-T4, ^125 I-Thyroxin]
% Binding of ^125 I-T4 ([1]; (1) no stick, 0 μg T4): 36% | % Binding of ^125 I-T4 ([1]; (1) no stick, 2.5 μg T4): 29% | % Binding of ^125 I-T4 ([1]; (1) no stick, 5.0 μg T4): 23% | % Binding of ^125 I-T4 ([1]; (1) no stick, 10.0 μg T4): 16% | % Binding of ^125 I-T4 ([1]; (1) no stick, 25.0 μg T4): 8% | % Binding of ^125 I-T4 ([1]; (2) uncoated stick, 0 μg T4): 31% | % Binding of ^125 I-T4 ([1]; (3) anti-digoxin coated stick, 0 μg T4): 30% | % Binding of ^125 I-T4 ([1]; (3) anti-digoxin coated stick, 5.0 μg T4): 20% | % Binding of ^125 I-T4 ([1]; (3) anti-digoxin coated stick, 25.0 μg T4): 7% | % Binding of ^125 I-T4 ([2]; (1) anti-T4 stick, 0 μg T4, 1 h room temp): 56% | % Binding of ^125 I-T4 ([2]; (1) anti-T4 stick, 2.5 μg T4): 37% | % Binding of ^125 I-T4 ([2]; (1) anti-T4 stick, 5.0 μg T4): 24% | % Binding of ^125 I-T4 ([2]; (1) anti-T4 stick, 25.0 μg T4): 7% | % Binding of ^125 I-T4 ([2]; (2) anti-digoxin and anti-T4 stick, 0 μg T4): 55% | % Binding of ^125 I-T4 ([2]; (2) anti-digoxin and anti-T4 stick, 2.5 μg T4): 35% | % Binding of ^125 I-T4 ([2]; (2) anti-digoxin and anti-T4 stick, 5.0 μg T4): 26% | % Binding of ^125 I-T4 ([2]; (2) anti-digoxin and anti-T4 stick, 25.0 μg T4): 8%
